In PubChem BioAssay AID1671190 (National Center for Advancing Translational Sciences (NCATS), 2021):
Several values for one entry are separate records, joined by “and”; a condition that tells them apart may be missing. Equal entries are not always repeated. Only a part is listed here, and it is no random draw. Some of these compounds have results that are not shown, active ones among them. Results filed as inconclusive are left out. Activity calls are given as the source filed them. Calls come from the whole dose curve; as a rule, active = well fitted inhibition curve with a large enough effect; inconclusive = small, poorly fitted or top-dose-only effect, or another doubt; inactive = no such curve, though single readings can be large or run the other way.

The chains behind the UniProt entries cited, without tags or fusion partners.
UniProt P18054, whole entry: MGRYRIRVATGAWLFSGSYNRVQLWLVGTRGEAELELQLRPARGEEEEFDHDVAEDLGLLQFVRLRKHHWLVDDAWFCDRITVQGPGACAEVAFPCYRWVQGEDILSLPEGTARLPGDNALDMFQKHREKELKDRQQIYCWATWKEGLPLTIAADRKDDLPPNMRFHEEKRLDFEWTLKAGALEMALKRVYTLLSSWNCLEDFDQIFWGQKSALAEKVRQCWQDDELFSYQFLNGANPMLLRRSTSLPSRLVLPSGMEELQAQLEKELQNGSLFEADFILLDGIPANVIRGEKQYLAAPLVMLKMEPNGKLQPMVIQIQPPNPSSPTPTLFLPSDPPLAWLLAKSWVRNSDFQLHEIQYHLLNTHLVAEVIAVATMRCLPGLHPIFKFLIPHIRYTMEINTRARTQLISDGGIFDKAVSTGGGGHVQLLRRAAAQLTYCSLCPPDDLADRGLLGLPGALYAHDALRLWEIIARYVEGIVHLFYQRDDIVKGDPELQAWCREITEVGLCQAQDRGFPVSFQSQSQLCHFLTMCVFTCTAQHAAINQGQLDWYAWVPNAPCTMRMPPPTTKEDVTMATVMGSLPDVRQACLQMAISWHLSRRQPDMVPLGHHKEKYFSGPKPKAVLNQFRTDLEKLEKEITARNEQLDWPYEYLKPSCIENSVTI

Target: Polyunsaturated fatty acid lipoxygenase ALOX12 (Homo sapiens) (UniProt P18054)
Test: Primary qHTS assay for inhibitors of human arachidonate 12S-lipoxygenase (ALOX12): Round 2
Details: purified 12hLO, xylenol orange hydroperoxide absorbance; at 108 µM (top of the series)
Source text: Assay Provider: Theodore R. Holman Ph.D. University of California, Santa Cruz, California Human lipoxygenase 12hLO is a member of the closely related lipoxygenase family of enzymes which catalyze the site-specific oxidation of arachidonic acid to various hormone precursor molecules and as such is a candidate for drug development in a variety of disease areas, such as cancer and inflammation. Inhibition of 12hLO activity was screened by utilizing arachidonic acid as a substrate. The extent of hydroperoxide product formation was measured by a secondary chromogenic reaction in which xylenol orange (XO, Sigma-Aldrich, cat. number 39,818-7) reacts with the ferric ions produced from the reaction between the hydroperoxide and ferrous ions. The Fe (III)-XO complex is characterized with red-shifted absorbance at 560 nm. A purified preparation of human 12hLO was supplied by Dr. Holman laboratory, University of California, Santa Cruz.
PROTOCOL TABLE SEQUENCE No. (e.g., 1, 2, 3, etc.); […] (e.g., Cells, Incubation, Reagent, etc.); VALUE; DESCRIPTION 1; Enzyme; 3 uL; 150 nM 12hLO enzyme solution dispensed in 1536-well Greiner black, clear bottom plates. 2; Compound; 23 nL; compounds and controls were added. 3; Incubate; 15 min; room temperature. 4; Substrate; 1 uL; 40 uM arachidonic acid (final concentration). 5; Incubate; 30 min; room temperature. 6; Reagent; 4 uL; Fe-XO solution was added to each well. 7; Incubation; 30 min; room temperature 8; Detector; absorbance; Read 1 at 405 nm absorbance using ViewLux (Perkin-Elmer) CCD imager. 9; Detector; absorbance; Read 2 at 573 nm absorbance using ViewLux (Perkin-Elmer) CCD imager. NOTES (numbers refer to sequence above) 1; 150 nM 12hLO (final concentration) in buffer solution (25 mM Hepes, 0.01% Triton X-100, pH 7.0) was dispensed in columns 1, 2, 5-48. Column 1 is neutral (100% activity). Buffer only was dispensed in columns 3 and 4 as no enzyme negative controls. The plates were covered with metal lids with gas-exchange holes. 2; Compounds were pin transferred via a Kalypsys Pin Tool (Wako USA) in column 5-48. Control compound was transferred in column 2, titration of nordihydroguaiaretic acid (NDGA, Sigma-Aldrich, N5023) with top concentration of 20 mM in DMSO then 1:3 dilution in duplicate. Dilution factor of 23 nL into 4 uL final assay volume. 3; Covered assay plates were incubated for 15 min at room temperature. 4; Substrate was added to start the reaction; 40 uM arachidonic acid (Sigma-Aldrich, St. Louis, MO) was dispensed throughout the plate. 6; Chromogenic detection reagent solution (divalent iron/xylenol orange, Fe-XO) was added to each well: 200 uM xylenol orange, 300 uM ferrous ammonium sulfate prepared freshly in 50 mM sulfuric acid. 8, 9; Two absorbance readouts were obtained at 405 nm and at 573 nm using a ViewLux high-throughput CCD plate imager (Perkin-Elmer). The 573 to 405 (Read 2 / Read 1) absorbance ratio was used to compute reaction progress.
% is set by controls: 0 for no effect and ±100 for the full control effect.

Compound	activity change, negative = inhibition
CN(C)C1(CNC(=O)c2ccc(Br)cc2)CCCCC1	inactive: 6.13%
COc1cc(C(=O)NCC2(N(C)C)CCCCC2)c([N+](=O)[O-])cc1OC	inactive: 13.1%
COc1ccc(Cl)cc1C(=O)NCC1(N(C)C)CCCCC1	inactive: 0%
COc1cccc(C(=O)NCC2(N3CCCCC3)CCCCC2)c1	inactive: 12.5%
COc1ccc(C(=O)NCC2(N(C)C)CCCCC2)cc1Cl	inactive: -20.5%
O=C(NCC1(N2CCCCC2)CCCCC1)c1cccc(Cl)c1	inactive: -2.29%
O=C(OC1CN2CCC1CC2)C(CO)(c1ccccc1)c1ccccc1 (centres undefined)	inactive: -1.54%
C=C(C)C#CC(O)(C(=O)OC1CCN(C)CC1)c1ccccc1 (centres undefined)	inactive: 2.51%
COc1ccc(Br)c(C(=O)NCC2(N3CCCCC3)CCCCC2)c1	inactive: 17.6%
COc1cc(C(=O)NCC2(N(C)C)CCCCC2)cc(OC)c1OC	inactive: -18.9%
Cc1cccc(C(=O)NCC2(N(C)C)CCCCC2)c1	inactive: -26.3%
O=C(OCCN1CCCC1)C(O)(c1ccccc1)c1ccccc1	inactive: -2.65%
CC(C)Oc1ccc(C(=O)NCC2(N(C)C)CCCCC2)cc1	inactive: -20.3% and inactive: 24.5%
CN(C)c1cccc(C(=O)NCC2(N(C)C)CCCCC2)c1	inactive: 51.6%
O=C(NCC1(N2CCCCC2)CCCCC1)c1cc([N+](=O)[O-])ccc1Cl	inactive: 2.53%
CN1[C@@H]2CC[C@H]1CC(OC(=O)C(O)(c1ccccc1)c1ccccc1)C2 (some centres undefined)	inactive: 0%
COc1cc(SC)ccc1C(=O)NCC1(N(C)C)CCCCC1	inactive: 0%

Compound	activity change, negative = inhibition
CN(C)C1(CNC(=O)c2cccc(Cl)c2)CCCCC1	inactive: 0%
CCN(CC)CC(C)C(C)OC(=O)C(O)(c1ccccc1)c1ccccc1 (centres undefined)	inactive: -2.78%
CC(C)N1C(=O)CC2(CCN(CCOC(=O)C(O)(c3ccccc3)c3ccccc3)CC2)C1=O	inactive: 0%
Cc1ccc(C(=O)NCC2(N3CCCCC3)CCCCC2)cc1	inactive: -18.6%
CN(C)C1(CNC(=O)c2ccccc2F)CCCCC1	inactive: -19.5%
CN(C)c1ccc(C(=O)NCC2(N(C)C)CCCCC2)cc1	inactive: -2.29%
Cc1ccccc1C(=O)NCC1(N2CCCCC2)CCCCC1	inactive: -13.6%
CN(C)C1(CNC(=O)c2ccccc2[N+](=O)[O-])CCCCC1	inactive: -18%
CCCCOc1ccccc1C(=O)NCC1(N(C)C)CCCCC1	inactive: -23.5%
CN(C)CCOC(=O)C(O)(c1ccccc1)C1CCCCC1 (centres undefined)	inactive: 0.776%
O=C(NCC1(N2CCCCC2)CCCCC1)c1cc(F)c(F)cc1Cl	inactive: -20.5%
C=CCN1CCN(CCOC(=O)C(O)(c2ccccc2)c2ccccc2)CC1	inactive: -3.44%
CN(C)C1(CNC(=O)c2cccs2)CCCCC1	inactive: -55.6%
CCOc1cccc(C(=O)NCC2(N(C)C)CCCCC2)c1	inactive: -22.5%
COc1ccc(C(=O)NCC2(N(C)C)CCCCC2)cc1	inactive: -3.31%
O=C(NCC1(N2CCCCC2)CCCCC1)c1cccc(Br)c1	inactive: -10.9%
O=C(NCC1(N2CCOCC2)CCCCC1)c1cc(=O)c2ccccc2o1	inactive: -6.63%
